Measurements taken from patent publication US20200354426A1 (MEDIMMUNE LIMITED, priority 2016, published 2020).
Read-outs that look alike come from different tables or passages of the source.

System: healthy volunteers
[1] = single dose 300 μg, plasma, geometric mean

L-Histidyl-L-seryl-L-glutaminylglycyl-L-threonyl-L-phenylalanyl-L-threonyl-L-seryl-L-alpha-aspartyl-(N6-[N-(1-oxohexadecyl)-L-gamma-gutamyl])L-lysy-L-sery-L-alpha-glutamyl-L-tyrosyl-L-leucyl-L-alpha-aspartyl-L-seryl-L-alpha-glutamyl-L-arginyl-L-alanyl-L-arginyl-L-alpha-L-aspartyl-L-phenylalanyl-L-valyl-L-alanyl-L-tryptophyl-L-leucyl-L-alpha-glutamyl-L-alanylglycylglycine [Peptide G933]
Subjects with TEAE: Abdominal pain (150 μg, N = 6): 0
Subjects with TEAE: Application site erosion (150 μg, N = 6): 0
Subjects with TEAE: Arrhythmia (150 μg, N = 6): 0
Subjects with TEAE: Atrioventricular block second degree (150 μg, N = 6): 0
Subjects with TEAE: Cardiac Disorders (150 μg, N = 6): 0
Subjects with TEAE: Decreased appetite (150 μg, N = 6): 2 (33.3%)
Subjects with TEAE: Diarrhoea (150 μg, N = 6): 0
Subjects with TEAE: Dizziness (150 μg, N = 6): 2 (33.3%)
Subjects with TEAE: Gastrointestinal Disorders (150 μg, N = 6): 5 (83.3%)
Subjects with TEAE: Headache (150 μg, N = 6): 1 (16.7%)
Subjects with TEAE: Immune System Disorders (150 μg, N = 6): 0
Subjects with TEAE: Infections and infestations (150 μg, N = 6): 0
Subjects with TEAE: Injury associated with device (150 μg, N = 6): 0
Subjects with TEAE: Injury, poisoning and procedural complications (150 μg, N = 6): 0
Subjects with TEAE: Metabolism and nutrition disorders (150 μg, N = 6): 2 (33.3%)
Subjects with TEAE: Musculoskeletal and connective tissue disorders (150 μg, N = 6): 0
Subjects with TEAE: Musculoskeletal chest pain (150 μg, N = 6): 0
Subjects with TEAE: Nasopharyngitis (150 μg, N = 6): 0
Subjects with TEAE: Nausea (150 μg, N = 6): 4 (66.7%)
Subjects with TEAE: Nervous system disorders (150 μg, N = 6): 2 (33.3%)
Subjects with TEAE: Oropharyngeal pain (150 μg, N = 6): 1 (16.7%)
Subjects with TEAE: Procedural dizziness (150 μg, N = 6): 0
Subjects with TEAE: Respiratory, thoracic and mediastinal disorders (150 μg, N = 6): 1 (16.7%)
Subjects with TEAE: Seasonal allergy (150 μg, N = 6): 0
Subjects with TEAE: Ventricular extrasystoles (150 μg, N = 6): 0
Subjects with TEAE: Vomiting (150 μg, N = 6): 4 (66.7%)
TEAE: Subject with at least one event (150 μg, N = 6): 5 (83.3%)
subjects with vomiting (300 μg single dose): 5 subjects
tolerability (300 μg single dose): not tolerated
vomiting episodes (300 μg single dose): Thirty
subjects with significant vomiting (300 μg single dose (5 of 6 subjects)): 83.3%
Subjects with TEAE: Abdominal distension (300 μg, N = 6): 0
Subjects with TEAE: Abdominal pain (300 μg, N = 6): 0
Subjects with TEAE: Application site erosion (300 μg, N = 6): 0
Subjects with TEAE: Arrhythmia (300 μg, N = 6): 0
Subjects with TEAE: Atrioventricular block second degree (300 μg, N = 6): 0
Subjects with TEAE: Cardiac Disorders (300 μg, N = 6): 1 (16.7%)
Subjects with TEAE: Diarrhoea (300 μg, N = 6): 0
Subjects with TEAE: Dizziness (300 μg, N = 6): 1 (16.7%)
Subjects with TEAE: Gastrointestinal Disorders (300 μg, N = 6): 5 (83.3%)
Subjects with TEAE: Headache (300 μg, N = 6): 0
Subjects with TEAE: Immune System Disorders (300 μg, N = 6): 0
Subjects with TEAE: Infections and infestations (300 μg, N = 6): 0
Subjects with TEAE: Injury associated with device (300 μg, N = 6): 1 (16.7%)
Subjects with TEAE: Injury, poisoning and procedural complications (300 μg, N = 6): 0
Subjects with TEAE: Metabolism and nutrition disorders (300 μg, N = 6): 0
Subjects with TEAE: Musculoskeletal and connective tissue disorders (300 μg, N = 6): 0
Subjects with TEAE: Musculoskeletal chest pain (300 μg, N = 6): 0
Subjects with TEAE: Nasopharyngitis (300 μg, N = 6): 0
Subjects with TEAE: Nausea (300 μg, N = 6): 3 (50.0%)
Subjects with TEAE: Nervous system disorders (300 μg, N = 6): 1 (16.7%)
Subjects with TEAE: Oropharyngeal pain (300 μg, N = 6): 0
Subjects with TEAE: Procedural dizziness (300 μg, N = 6): 0
Subjects with TEAE: Respiratory, thoracic and mediastinal disorders (300 μg, N = 6): 0
Subjects with TEAE: Seasonal allergy (300 μg, N = 6): 0
Subjects with TEAE: Ventricular extrasystoles (300 μg, N = 6): 1 (16.7%)
Subjects with TEAE: Vomiting (300 μg, N = 6): 5 (83.3%)
TEAE: Subject with at least one event (300 μg, N = 6): 5 (83.3%)
Median diastolic BP maximum post dose change (Dose (µg) 5): 13 mm Hg
Number of subjects with vomiting (Dose (µg) 5): 0 (0)
vomiting episodes (Dose (µg) 5): 0 (0)
Median diastolic BP maximum post dose change (Dose (µg) 10): 8 mm Hg
Number of subjects with vomiting (Dose (µg) 10): 0 (0)
vomiting episodes (Dose (µg) 10): 0 (0)
Median diastolic BP maximum post dose change (Dose (µg) 30): 10.5 mm Hg
Number of subjects with vomiting (Dose (µg) 30): 0 (0)
vomiting episodes (Dose (µg) 30): 0 (0)
Median diastolic BP maximum post dose change (Dose (µg) 100): 16 mm Hg
Number of subjects with vomiting (Dose (µg) 100): 1 (1)
vomiting episodes (Dose (µg) 100): 1 (1)
Median diastolic BP maximum post dose change (Dose (µg) 150): 15 mm Hg
Number of subjects with vomiting (Dose (µg) 150): 4
vomiting episodes (Dose (µg) 150): 9
Median diastolic BP maximum post dose change (Dose (µg) 300): 19 mm Hg
Number of subjects with vomiting (Dose (µg) 300): 5
vomiting episodes (Dose (µg) 300): 30
Subjects with TEAE: Abdominal distension (Total G933, N = 36): 2 (5.6%)
Subjects with TEAE: Abdominal pain (Total G933, N = 36): 1 (2.8%)
Subjects with TEAE: Application site erosion (Total G933, N = 36): 1 (2.8%)
Subjects with TEAE: Arrhythmia (Total G933, N = 36): 1 (2.8%)
Subjects with TEAE: Atrioventricular block second degree (Total G933, N = 36): 1 (2.8%)
Subjects with TEAE: Cardiac Disorders (Total G933, N = 36): 3 (8.3%)
Subjects with TEAE: Decreased appetite (Total G933, N = 36): 2 (5.6%)
Subjects with TEAE: Diarrhoea (Total G933, N = 36): 1 (2.8%)
Subjects with TEAE: Dizziness (Total G933, N = 36): 5 (13.9%)
Subjects with TEAE: Gastrointestinal Disorders (Total G933, N = 36): 12 (33.3%)
Subjects with TEAE: Headache (Total G933, N = 36): 4 (11.1%)
Subjects with TEAE: Immune System Disorders (Total G933, N = 36): 1 (2.8%)
Subjects with TEAE: Infections and infestations (Total G933, N = 36): 1 (2.8%)
Subjects with TEAE: Injury associated with device (Total G933, N = 36): 1 (2.8%)
Subjects with TEAE: Injury, poisoning and procedural complications (Total G933, N = 36): 1 (2.8%)
Subjects with TEAE: Metabolism and nutrition disorders (Total G933, N = 36): 2 (5.6%)
Subjects with TEAE: Musculoskeletal and connective tissue disorders (Total G933, N = 36): 1 (2.8%)
Subjects with TEAE: Musculoskeletal chest pain (Total G933, N = 36): 1 (2.8%)
Subjects with TEAE: Nasopharyngitis (Total G933, N = 36): 1 (2.8%)
Subjects with TEAE: Nausea (Total G933, N = 36): 8 (22.2%)
Subjects with TEAE: Nervous system disorders (Total G933, N = 36): 7 (19.4%)
Subjects with TEAE: Oropharyngeal pain (Total G933, N = 36): 1 (2.8%)
Subjects with TEAE: Procedural dizziness (Total G933, N = 36): 1 (2.8%)
Subjects with TEAE: Respiratory, thoracic and mediastinal disorders (Total G933, N = 36): 1 (2.8%)
Subjects with TEAE: Seasonal allergy (Total G933, N = 36): 1 (2.8%)
Subjects with TEAE: Ventricular extrasystoles (Total G933, N = 36): 1 (2.8%)
Subjects with TEAE: Vomiting (Total G933, N = 36): 10 (27.8%)
TEAE: Subject with at least one event (Total G933, N = 36): 21 (58.3%)
subjects who experienced vomiting (all single doses): 10 subjects
vomiting episodes, total (all single doses): 40 episodes
anti-drug antibody (ADA) positive subjects (baseline or post-baseline): No subjects were ADA positive
CL/f (single dose 300 μg, geometric mean): 0.79 L/h
AUC (0-last) [1]: 364.47 ng·h/mL
AUC (0-∞) [1]: 379.12 ng·h/mL
Cmax [1]: 20.98 ng/mL
t1/2 [1]: 9.54 h
Tmax (single dose 300 μg, plasma, median): 4.50 h
tolerability with respect to nausea, vomiting, tachycardia and blood pressure (single doses up to 150 μg): acceptable
Inter-subject variability (CV) for Cmax and AUC0-∞ (single sc dose): 3-37%
median tmax (single sc dose, 300 μg): 4.5 h
geometric mean t1/2 (single sc dose, healthy volunteers): 10 to 12 h
